Experiment: in vitro
Conditions: for microsomal CLint at 3 μM: both, microsomes, pH 7.4; for T1/2 (min) HLM: human liver microsomes; for T1/2 (min) HLM / T1/2 (min) RLM: 3 μM, 0.5 mg/mL protein; for T1/2 (min) RLM: rat liver microsomes
Method: Human and Rat Liver Microsomal Stability Assay
The metabolic stability of the compounds of the Formula (I) was measured by determination of the rate of compound disappearance when incubated in the presence of both human and rat liver microsomes. Liver microsomes are prepared from the endoplasmic reticulum of hepatocytes and are the primary source of the most important enzymes (cytochrome P450) involved in drug metabolism. Study of drug stability in the presence of liver microsomes is accepted as a valuable model permitting rapid prediction of in vivo drug stability.
Human and rat liver microsomes were obtained from a commercial source. Test compounds (3 μM) were incubated with pooled liver microsomes (male and female). Samples were incubated for a 45 minute period and removed at 5 time points and test compounds were analysed by LC-MS/MS.
The final incubation volume was 25 μL. A control incubation was included for each compound tested, where 0.1 M phosphate buffer pH 7.4 was added instead of NADPH. The control compounds testosterone and 7-hydroxycoumarin were included in each experiment and all incubations were performed singularly for each compound.
Each compound was incubated for 0, 5, 15, 30, and 45 minutes. The control (minus NADPH) was incubated for 45 minutes only. The reactions were stopped by the addition of 50 μL methanol containing internal standard at the appropriate time points. The incubation plates were centrifuged at 2500 rpm for 20 minutes at 4° C. to precipitate the protein.
Following protein precipitation, the sample supernatants were combined in cassettes of up to 4 compounds and analysed using standard LC-MS/MS conditions.
From a plot of the natural logarithm of the peak area ratio (i.e., the ratio of compound peak area:internal standard peak area) against time, the gradient of the line was determined. Subsequently, half-life and intrinsic clearance were calculated using the equations below: Eliminated Rate Constant (k)=(−Gradient).

Structure (SMILES)	microsomal CLint at 3 μM (human) [µL/min/mg]	microsomal CLint at 3 μM (rat) [µL/min/mg]	T1/2 (min) HLM [min]	T1/2 (min) RLM [min]
N#CC(C#N)C(c1ccccc1)c1c(-c2ccccc2)[nH]c2ccccc12 (centres unmarked) [ABD1100, 2-(Phenyl(2-phenyl-1H-indol-3-yl)methyl)malononitrile]	52.9	93.7	26.2	14.8
N#CCC(c1ccccc1)c1c(-c2ccccc2)[nH]c2ccccc12 (centres unmarked) [ABD1102, 3-Phenyl-3-(2-phenyl-1H-indol-3-yl)propanenitrile]	32.4	95.4	42.7	14.5
Cc1ccc2c(C(CC#N)c3ccccc3)c(-c3ccccc3)[nH]c2c1 (centres unmarked) [ABD1132, 3-(6-Methyl-2-phenyl-1H-indol-3-yl)-3-phenylpropanenitrile]	30.3	74	45.7	18.7
Cc1ccc2c(C(c3ccccc3)C(C#N)C#N)c(-c3ccccc3)[nH]c2c1 (centres unmarked) [ABD1133, 2-((6-Methyl-2-phenyl-1H-indol-3-yl)(phenyl)methyl)malononitrile]	35.2	112	39.3	12.4
FC(F)(F)CC(c1ccccc1)c1c(-c2ccccc2)[nH]c2ccccc12 (centres unmarked) [ABD1137, 2-Phenyl-3-(3,3,3-trifluoro-1-phenylpropyl)-1H-indole]	16.3	34	85.2	40.7
O=C(C(c1ccccc1)c1c(-c2ccccc2)[nH]c2ccccc12)C(F)(F)F (centres unmarked) [ABD1139, 1,1,1-Trifluoro-3-phenyl-3-(2-phenyl-1H-indol-3-yl)propan-2-one]	27.1	33.5	51.1	41.4
Cc1ccc2c(C(CC(F)(F)F)c3ccccc3)c(-c3ccccc3)[nH]c2c1 (centres unmarked) [ABD1145, 6-Methyl-2-phenyl-3-(3,3,3-trifluoro-1-phenylpropyl)-1H-indole]	–	49.2	–	28.2
Cc1ccc2c(C(C(=O)C(F)(F)F)c3ccccc3)c(-c3ccccc3)[nH]c2c1 (centres unmarked) [ABD1146, 1,1,1-Trifluoro-3-(6-methyl-2-phenyl-1H-indol-3-yl)-3-phenylpropan-2-one]	5.2	55.8	267	24.8
Cc1ccc2c(C(CC3CC3)CC(F)(F)F)c(-c3ccccc3)[nH]c2c1 (centres unmarked) [ABD1156, 3-(1-Cyclopropyl-4,4,4-trifluorobutan-2-yl)-6-methyl-2-phenyl-1H-indole]	18.6	70.1	74.4	19.8
Cc1ccc2c(C(CC(F)(F)F)c3cccs3)c(-c3ccccc3)[nH]c2c1 (centres unmarked) [ABD1187, 6-Methyl-2-phenyl-3-(3,3,3-trifluoro-1-(thiophen-2-yl)propyl)-1H-indole]	–	79.3	108	17.5
Cc1ccc2c(C(CC(F)(F)F)c3ccco3)c(-c3ccccc3)[nH]c2c1 (centres unmarked) [ABD1188, 6-Methyl-2-phenyl-3-(3,3,3-trifluoro-1-(furan-2-yl)propyl)-1H-indole]	23.4	134	59.1	10.3
FC(F)(F)CC(c1ccco1)c1c(-c2ccccc2)[nH]c2cc(Cl)ccc12 (centres unmarked) [ABD1216, 6-Chloro-2-phenyl-3-(3,3,3-trifluoro-1-(furan-2-yl)propyl)-1H-indole]	21.7	29.9	63.9	46.3
FC(F)(F)CC(c1cccs1)c1c(-c2ccccc2)[nH]c2cc(Cl)ccc12 (centres unmarked) [ABD1217, 6-Chloro-2-phenyl-3-(3,3,3-trifluoro-1-(thiophen-2-yl)propyl)-1H-indole]	8.8	25.5	157	54.3
FC(F)(F)CC(c1ccccc1)c1c(-c2ccccc2)[nH]c2cc(Cl)ccc12 (centres unmarked) [ABD1218, 6-Chloro-2-phenyl-3-(3,3,3-trifluoro-1-phenylpropyl)-1H-indole]	14.1	17.8	98.6	78.0

From US10377711B2, “Cannabinoid type 1 receptor modulators” (priority 2014, dated 2019)
